ChEMBL document CHEMBL1132204, “Design and synthesis of phosphinamide-based hydroxamic acids as inhibitors of matrix metalloproteinases” (J Med Chem, 1999)

By UniProt entry, the sequences of proteins in these tests, tags left out. Where a name states a change or a piece, a line headed by the entry shows the natural chain unless it says otherwise.
UniProt P22894: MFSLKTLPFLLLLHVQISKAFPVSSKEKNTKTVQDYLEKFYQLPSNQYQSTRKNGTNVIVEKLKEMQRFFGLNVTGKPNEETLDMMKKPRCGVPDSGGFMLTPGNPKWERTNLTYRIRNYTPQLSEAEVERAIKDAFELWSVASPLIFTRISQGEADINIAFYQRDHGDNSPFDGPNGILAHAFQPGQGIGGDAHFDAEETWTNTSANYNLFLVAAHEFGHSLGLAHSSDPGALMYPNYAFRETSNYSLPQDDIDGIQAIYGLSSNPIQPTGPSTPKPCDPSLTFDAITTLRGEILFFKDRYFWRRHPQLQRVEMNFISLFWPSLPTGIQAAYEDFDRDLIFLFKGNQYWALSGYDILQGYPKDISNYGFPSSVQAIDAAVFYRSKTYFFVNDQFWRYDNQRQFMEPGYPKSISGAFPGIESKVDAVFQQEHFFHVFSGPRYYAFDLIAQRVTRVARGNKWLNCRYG

Biological target: Neutrophil collagenase (Homo sapiens, UniProt P22894)
Test: Inhibition of human Matrix metalloprotease-8

- pIC50: 8.36
SMILES: COc1ccc(S(=O)(=O)N(Cc2cccnc2)[C@@H](C(=O)NO)C(C)C)cc1 [CGS-27023A]

pIC50: −log10 of the molar value.
